# According to patent US12410143B2, “Therapeutic inhibitors of the reverse mode of ATP synthase” (priority 2017, dated 2025):
# How the values were obtained:
# NCI-60 cancer cell lines = test: NCI-60 one-dose in vitro assay; conditions: 10 μM
# F1F0 ATP hydrolase = F1F0 ATP hydrolase (Bos taurus, UniProt P00829+P19483); conditions: stereoisomers of 19a [5-6]; cited from earlier work
structure (smiles),measurement,setting,value
N#Cc1cccc(C(=O)N=C(Nc2ccc(Cl)cc2)N[C@H](Cn2ccnc2)c2ccc(Cl)cc2Cl)c1,anti-cancer activity (NCI one-dose assay),NCI-60 cancer cell lines,exerted anti-cancer activity
same,inhibits F1F0-ATP hydrolysis,F1F0 ATP hydrolase,inhibits F1F0-ATP hydrolysis
